UUG fidelity: yeast start codon fidelity modulation; activity score, % at 18.7 µM; actives 0.13% (n = 350,000); S. cerevisiae UUG-firefly luciferase reporter, luminescence/redox ratio; AID 602363;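 active means replicate mean at a twofold rise or more, about +100% in these data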;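 further: firefly luciferase made from a UUG start codon reports start codon fidelity; reporter light over untreated wells divided by growth signal over untreated wells; some hits fall short of that in this replicate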
miR-122 sensor: blocks miR-122 activity in Huh7 sensor cells; activation (reporter increase), % at 12.5 µM; 340,000 tested, 0.3% active; Huh7 miR-122 Renilla luciferase sensor, 48 h; neutral wells = 0, positive control = 100;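 active means mean replicate activation score at least 90 and every replicate individually at or above 90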;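 further: higher luciferase means less miR-122 activity so hits act as miR-122 inhibitors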
Cneo AK release: Cryptococcus neoformans lysis via adenylate kinase release; C. neoformans lysis, adenylate kinase release luminescence, 4 h; normalised: neutral wells 0, clomiphene wells 100; lysis activity, % at 15 µM; 360,000 tested, 0.2% active; AID 651654;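 active means mean lysis activity across replicates of at least 80%, whatever share of replicates individually reach that level; inactive means mean lysis activity below 80%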
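Assay system: log-phase C. neoformans yeast / Quantity: yeast cell density of 5 × 10^6 cells/mL / Medium: fresh YPD growth medium / Compound: single dose / Timing: static 4 h at 37 °C with compound, 1 h detection / Measured by: adenylate kinase release luminescence / Read-out: lysis from increased AK signal / Benchmarks: Clomiphene as positive lysis control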
C2C12 statin: suppression of simvastatin myotoxicity. C2C12 myotubes + simvastatin, ATP luminescence, 48 h; scaled: DMSO 0, geranylgeraniol control 100. rescue of ATP level, % at 7.49 µM. 330,000 tested, 0.78% active. AID 602340;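 active means mean ATP rescue above about 67%, or every replicate alone reaching that limit, limit read from the data, passing the limit was not always enough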;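 further: myotubes were challenged with 10 µM simvastatin during compound exposure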
Numbers without * were called inactive; . = no result given; [ ] = another dose, or the depositor's remark. This is a sample that favours compounds with a hit; in the whole collection about 1.2% have one here.

Assay codes – A = UUG fidelity; B = miR-122 sensor; C = Cneo AK release; D = C2C12 statin
COc1cccc(S(=O)(=O)Nc2ccc3c(c2)[C@H]2C[C@H](CC(=O)N(C)C)O[C@@H](CO)[C@H]2O3)c1
  A = 3 | B = 4[16.7 µM] | C = 99* | D = -1
O=C(O)C[C@@H]1C[C@@H]2c3cc(NC(=O)CC4CC4)ccc3O[C@@H]2[C@@H](CO)O1
  A = 50* | B = 3[16.7 µM] | C = -1 | D = -5
COc1cccc(S(=O)(=O)Nc2ccc3c(c2)[C@@H]2C[C@H](CC(=O)N(C)C)O[C@@H](CO)[C@@H]2O3)c1
  A = 15 | B = -4[16.7 µM] | C = 21 | D = 0
CN(C)C(=O)C[C@@H]1C[C@@H]2c3cc(NC(=O)Nc4ccccc4)ccc3O[C@@H]2[C@@H](CO)O1
  A = 43* | B = 2[16.7 µM] | C = 1 | D = -1
CCC(C)(NC(=O)c1ccc(=O)[nH]c1)C(=O)NC1CCCC1 (centres undefined)
  A = -11 | B = -4 | C = 0 | D = 92*
O=C(NC1CCCc2ccccc21)c1ccc(=O)[nH]c1 (centres undefined)
  A = -5 | B = 3 | C = 0 | D = 2
C[C@@H]1CN([C@@H](C)CO)C(=O)Cc2cc(NS(C)(=O)=O)ccc2O[C@@H]1CN(C)C(=O)Nc1ccc2c(c1)OCO2
  A = -30 | B = 9[16.7 µM] | C = -1 | D = -3
CC(=O)C(=Nc1ccccc1Cl)NNc1ccc(Cl)cc1
  A = -25 | B = -2 | C = 1 | D = 152*
COc1ccc(NC(=O)N(C)C[C@H]2Oc3ccc(N(C)C)cc3C(=O)N([C@@H](C)CO)C[C@@H]2C)cc1
  A = . | B = 10[16.7 µM] | C = 0 | D = -5
CO[C@H]1CC[C@H]2CCOc3ccc(C#N)cc3C(=O)N(C)C[C@H](OC)[C@@H](C)C(=O)N(C)C[C@H]1O2
  A = . | B = . | C = 8 | D = 7
CCOC(=O)N1CCN(c2ccccc2O)CC1
  A = 15 | B = -3 | C = -1 | D = 124*
OC(c1ccc(OCc2ccccc2)cc1)c1nnc(-c2ccccc2)o1 (centres undefined)
  A = -20 | B = 0 | C = 8 | D = .
NC(CC(=O)O)c1cccc(OCc2ccccc2)c1 (centres undefined)
  A = -16 | B = -7 | C = 8 | D = 66*
OC(c1cccc(OCc2ccccc2)c1)c1nnc(-c2ccccc2)o1 (centres undefined)
  A = 1 | B = -12 | C = -2 | D = 146*
O=C(O)CC(NC(=O)OCc1ccccc1)c1ccccc1 (centres undefined)
  A = -22 | B = 1 | C = -1 | D = 93*
O=C(CC1CC1)Nc1ccc2c(c1)[C@H]1C[C@@H](CC(=O)NC3CCCCC3)O[C@H](CO)[C@H]1O2
  A = 52 | B = 4[16.7 µM] | C = -4 | D = 4
Cc1ccc(-c2nnc(-c3cccc4ccccc34)o2)cc1
  A = -15 | B = 3 | C = -2 | D = 1
Cc1cccc(-c2nnc(-c3cccc4ccccc34)o2)c1
  A = -25 | B = 146* | C = -29 | D = -3
C[C@H](CO)N1C[C@H](C)[C@H](CN(C)C(=O)Nc2cccc3ccccc23)Oc2c(NS(=O)(=O)c3ccc(Cl)cc3)cccc2C1=O
  A = 7 | B = -2[16.7 µM] | C = -1 | D = .
O=C(Nc1c(-c2ccccc2)nc2ccccn12)c1ccco1
  A = -6 | B = -3 | C = 6 | D = 27
Oc1ccc(-c2nc3ccccn3c2NCc2ccco2)cc1
  A = -6 | B = -1 | C = 0 | D = 81*
O=C(NCc1ccccc1)c1ccc2c(=O)n(CC3CCCO3)c(=S)[nH]c2c1 (centres undefined)
  A = -1 | B = -8 | C = -1 | D = -3
O=C(NCc1ccco1)c1ccc2c(=O)n(CC3CCCO3)c(=S)[nH]c2c1 (centres undefined)
  A = -11 | B = -3 | C = 0 | D = 91*
C[C@@H]1CCCCO[C@H](CN(C)C)[C@@H](C)CN([C@@H](C)CO)C(=O)c2cc(NC(=O)Cc3ccccc3)ccc2O1
  A = 10 | B = 3[16.7 µM] | C = 3 | D = -41
COc1ccccc1NS(=O)(=O)c1cccc(NC(=O)c2nc3nc(C)cc(C)n3n2)c1
  A = 2 | B = 6 | C = 8 | D = 126*

Assay codes – A = UUG fidelity; B = miR-122 sensor; C = Cneo AK release; D = C2C12 statin
COc1ccccc1NS(=O)(=O)c1cccc(NC(=O)c2ccc3ccccc3n2)c1
  A = -21 | B = 73 | C = 4 | D = 110*
COc1ccccc1NS(=O)(=O)c1cccc(NS(=O)(=O)c2ccc(Cl)c(C(=O)O)c2)c1
  A = -3 | B = -4 | C = 1 | D = 2
CCCNC(=O)N1C[C@@H](O)COC[C@@H]2O[C@@H](CC(=O)NCCCN3CCOCC3)CC[C@H]21
  A = -11 | B = 0[16.7 µM] | C = -2 | D = -21
CO[C@H]1CN(C)C(=O)c2cc(NS(=O)(=O)c3ccc(C)cc3)ccc2OC[C@@H](C)NC[C@H]1C
  A = -4 | B = 23[16.7 µM] | C = -2 | D = 1
CC(=O)N1[C@@H](CO)[C@H](c2ccc(-c3ccccc3)cc2)[C@@H]1CNC(=O)C1CC1
  A = 1 | B = 0[16.7 µM] | C = 95* | D = 11
CC(=O)N(C)C[C@@H]1[C@@H](c2ccc(-c3cccnc3)cc2)[C@H](CO)N1C(=O)C1CC1
  A = 16 | B = 258*[16.7 µM] | C = 9 | D = -7
CC(=O)N1[C@H](CO)[C@@H](c2ccc(-c3ccccc3)cc2)[C@@H]1CNC(=O)C1CC1
  A = -1 | B = -21[16.7 µM] | C = 1 | D = -1
C[C@H]1CN([C@@H](C)CO)C(=O)c2cc(C#CC(C)(C)O)cnc2O[C@@H]1CN(C)Cc1cccc(F)c1
  A = . | B = 19[16.7 µM] | C = . | D = -6
CCCCn1nc2cc(C(=O)NCc3ccc(C(F)(F)F)cc3C(F)(F)F)ccc2c1OCC
  A = -15 | B = 1 | C = 0 | D = 83*
O=C(NCCOC(=O)c1ccccc1)c1ccc([N+](=O)[O-])cc1
  A = -7 | B = -3 | C = 0 | D = -1
O=C(NCCOC(=O)c1ccncc1)c1ccccc1
  A = 5 | B = 12 | C = 2 | D = 87*
CC(=O)N1c2ccc(S(=O)(=O)NCCC(=O)NCCc3ccc(C)cc3)cc2CC1C (centres undefined)
  A = -38 | B = 4 | C = -2 | D = 109*
CC(=O)N1c2ccc(S(=O)(=O)NCCC(=O)NCc3ccc(F)cc3)cc2CC1C (centres undefined)
  A = -27 | B = 1 | C = 2 | D = 87*
Cn1c2c(c(=O)n(C)c1=O)CN(Cc1ccc3c(c1)OCO3)CN2
  A = -12 | B = -6 | C = -8 | D = 112*
Cn1c2c(c(=O)n(C)c1=O)CN(Cc1ccc(F)cc1)CN2
  A = -11 | B = -6 | C = 3 | D = 13
CCN(CC)Cc1c(O)ccc2c1O/C(=C\C=C\c1ccccc1)C2=O
  A = 8 | B = 278* | C = -3 | D = 106*
C[C@@H]1CN([C@@H](C)CO)C(=O)c2cc(NC(=O)Cc3ccccc3)ccc2O[C@@H](C)CCCCO[C@@H]1CN(C)S(=O)(=O)c1ccc(Cl)cc1
  A = 1 | B = -5[16.7 µM] | C = 5 | D = .
CO[C@H]1CN(C)C(=O)c2cc(NS(=O)(=O)CC(F)(F)F)ccc2OC[C@@H](C)N(Cc2ccccn2)C[C@H]1C
  A = -15 | B = . | C = 7 | D = 14
CCc1cccc2c(C(=O)CN3C(=O)NC4(CCCCC4)C3=O)c[nH]c12
  A = 1 | B = 115* | C = 0 | D = -111
COC(=O)C(C)Sc1nc2c(cnn2-c2ccc(C)cc2)c(=O)[nH]1 (centres undefined)
  A = -9 | B = -5 | C = 3 | D = 106*
O=S(=O)(c1ccccc1C(F)(F)F)N1CCN(S(=O)(=O)c2ccccc2C(F)(F)F)CC1
  A = -22 | B = 2 | C = 0 | D = 113*
C[C@@H]1CN([C@@H](C)CO)C(=O)c2cc(NC(=O)Cc3ccccc3)ccc2O[C@H]1CN(C)S(=O)(=O)c1cn(C)cn1
  A = -13 | B = -3[16.7 µM] | C = 0 | D = -1
